Where a name gives a salt, the structure may show the parent alone.

The results in this text go back to PMC8881501, “Identification of SARS-CoV-2 inhibitors targeting Mpro and PLpro using in-cell-protease assay” (Communications Biology, 2022).

One experiment addresses SARS-CoV-2 Mpro (Severe acute respiratory syndrome coronavirus 2, UniProt P0DTC1). The experiment can be described thus: In-cell protease (ICP) assay, Mpro construct in HEK293T cells. Format: cell-based.
The target in a further experiment is SARS-CoV-2 PLpro (Severe acute respiratory syndrome coronavirus 2, UniProt P0DTC1). As to the kind of experiment: cell-based. Particulars: HEK-293T, read-out: mEmerald-NLS nuclear/total fluorescence (protease activity) normalized to untreated cells.
The test system of a further experiment is SARS-CoV-2. Format: cell-based.
Where [1] appears, read: HEK-293T, read-out: mEmerald-NLS nuclear/total fluorescence (protease activity) normalized to untreated cells.

`COC(=O)N[C@H](C(=O)N1CCC[C@H]1c1nc(-c2ccc(-c3ccc(-c4c[nH]c([C@@H]5CCCN5C(=O)[C@@H](NC(=O)OC)C(C)C)n4)cc3)cc2)c[nH]1)C(C)C` [Daclastavir HCl]: the “effect on Mpro activity in cells” value at SARS-CoV-2 Mpro is recorded as “did not detect a reduction in Mpro activity”. On SARS-CoV-2 PLpro, the remaining activity at 1 µM came out at 50% and the remaining activity at 10 µM came out at 45%. Moreover, the “Selectivity index SI = CC50/EC50” value in the experiment on SARS-CoV-2 is reported as 20.2.
As for `COC(=O)N[C@H](C(=O)N1CCC[C@H]1c1ncc(-c2ccc(-c3ccc(-c4cnc([C@@H]5CCCN5C(=O)[C@@H](NC(=O)OC)C(C)C)[nH]4)cc3)cc2)[nH]1)C(C)C` [Daclatasvir (BMS-790052)], on SARS-CoV-2 Mpro (setting [1]), the remaining activity at 1 µM was found to be 86% and the remaining activity at 10 µM is 63.3%.
